# Results from US8415373B2, “Isoquinolinone derivatives as NK3 antagonists” (H. Lundbeck A/S, priority 2008, dated 2013).
# The chains behind the UniProt entries cited, without tags or fusion partners.
# UniProt P29371, whole entry: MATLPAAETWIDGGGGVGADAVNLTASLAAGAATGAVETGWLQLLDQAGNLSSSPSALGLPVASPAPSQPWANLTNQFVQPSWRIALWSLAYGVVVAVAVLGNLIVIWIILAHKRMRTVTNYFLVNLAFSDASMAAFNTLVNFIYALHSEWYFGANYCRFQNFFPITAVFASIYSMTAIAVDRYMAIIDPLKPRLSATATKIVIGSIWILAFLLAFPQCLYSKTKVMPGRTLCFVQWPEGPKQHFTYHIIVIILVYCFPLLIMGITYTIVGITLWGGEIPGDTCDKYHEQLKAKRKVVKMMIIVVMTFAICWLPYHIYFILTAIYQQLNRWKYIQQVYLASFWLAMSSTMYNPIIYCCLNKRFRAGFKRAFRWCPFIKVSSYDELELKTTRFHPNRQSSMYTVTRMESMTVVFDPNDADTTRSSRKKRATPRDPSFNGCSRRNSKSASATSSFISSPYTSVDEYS
# Molecular target: T1, human NK3 receptor (Homo sapiens, UniProt P29371)
# T1 construct: expressed in transfected cells
# Experiment: NK3 receptor efficacy and potency assay (FLIPR Calcium 4)
# Type: cell-based
# Settings: agonist dose-response in FLIPR
# Description: BHK cells stably expressing the human NK3 receptor were seeded in 100 μl media in black walled clear-base 96-wells plates (Costar) aiming at a confluency of 95-100% at the day of assay. The assay was performed according to the FLIPR Calcium 4 Assay kit (Molecular Devices). At the day of the assay, the media was removed and the cells were washed once with the HBSS buffer (Hanks BSS buffer, pH 7.4 containing 20 mM Hepes) before 100 μl of a solution of the calcium assay reagent dissolved in the HBSS buffer containing 2.5 mM probinicid was added to the cells. The plates were incubated for 60 min at 34° C., 10% CO2 before use in the FLIPR for examination of fluorescence. […]
# For efficacy and potency evaluation of compounds, these were diluted in HBSS buffer prior to test. For test of agonist activity, 25 μl of the diluted compound solution was added and the plate was analyzed for 5 minutes in the FLIPR. […] The plates were subsequently analyzed for 5 minutes before the assay was terminated. The maximal increase in fluorescence over background following each ligand addition was determined. The IC50 value was calculated using sigmoidal variable slope curve fitting, and the cIC50 value was determined using the equation (cIC50=IC50/(1+(EC85/EC50))), where EC85 and EC50 for NKB were determined as described above.
substance,measurement,value
neurokinin B [NKB],EC85 concentration of NKB,~1 nM
